This note sets out measurements from PubChem BioAssay AID540259 (Broad Institute, 2011).

The nature of the test: HeLa cell cytotoxicity, dose response, cytotoxicity control for MITF activator project, CellTiter-Glo luminescence, cherry-pick samples (AID 540259).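 Also: 0% = DMSO neutral control and -100% = mitoxantrone positive control.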 As to conditions: HeLa viability, CellTiter-Glo ATP luminescence, 24 h; at 35 µM (top of the series).

This is a selection; strong and weak results do not stand in their true shares. Potency and affinity values are given separately. Activity calls are given as the source filed them.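 The calls were made as follows: active = cell killing, meaning signal decrease, with fitted half-maximal dose at or below ten times the top valid tested dose; inconclusive = poor fit, or flat curve with 30 to 70% signal loss; inactive = the rest.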

Turning to `Oc1ccc(/C=C/c2cc(O)cc(O)c2)cc1`, the activity change, negative = cytotoxicity is inactive: 12.3%.
